Assay results from ChEMBL document CHEMBL4325916, “Isoform selective PLD inhibition by novel, chiral 2,8-diazaspiro[4.5]decan-1-one derivatives” (Bioorg Med Chem Lett, 2018).

Sequences of proteins named here, by UniProt entry; tags and fusion partners are left off. A change or cut given only in a name is not applied to a line headed by its entry.
UniProt O14939: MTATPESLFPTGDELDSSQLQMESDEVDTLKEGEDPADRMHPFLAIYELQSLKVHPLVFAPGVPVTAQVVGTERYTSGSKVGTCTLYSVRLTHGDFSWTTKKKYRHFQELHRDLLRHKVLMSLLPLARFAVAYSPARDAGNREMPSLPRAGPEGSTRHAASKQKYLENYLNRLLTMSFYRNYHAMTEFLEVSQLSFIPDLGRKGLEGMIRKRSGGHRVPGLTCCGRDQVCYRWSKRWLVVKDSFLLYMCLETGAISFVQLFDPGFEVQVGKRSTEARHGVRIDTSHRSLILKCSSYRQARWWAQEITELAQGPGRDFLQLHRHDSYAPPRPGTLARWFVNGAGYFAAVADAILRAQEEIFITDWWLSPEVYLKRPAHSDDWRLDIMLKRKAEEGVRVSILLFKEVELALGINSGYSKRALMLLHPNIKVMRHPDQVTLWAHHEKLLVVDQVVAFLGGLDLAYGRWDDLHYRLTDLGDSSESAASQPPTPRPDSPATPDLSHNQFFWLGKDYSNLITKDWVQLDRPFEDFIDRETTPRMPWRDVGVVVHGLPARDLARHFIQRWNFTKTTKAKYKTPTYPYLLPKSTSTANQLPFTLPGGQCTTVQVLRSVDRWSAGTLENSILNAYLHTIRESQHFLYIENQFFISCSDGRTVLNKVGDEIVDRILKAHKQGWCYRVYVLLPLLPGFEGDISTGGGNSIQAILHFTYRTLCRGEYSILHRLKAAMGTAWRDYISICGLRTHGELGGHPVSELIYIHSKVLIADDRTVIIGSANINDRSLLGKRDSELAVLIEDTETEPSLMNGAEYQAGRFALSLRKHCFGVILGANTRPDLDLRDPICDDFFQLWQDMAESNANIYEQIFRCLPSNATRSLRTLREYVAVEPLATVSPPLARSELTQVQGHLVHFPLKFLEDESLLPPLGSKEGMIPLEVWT

What was measured:
Phospholipase D2 = Phospholipase D2 (Homo sapiens, UniProt O14939); assay: Inhibition of GFP-fused PLD2 (unknown origin) expressed in HEK293 cells by cellular assay; format: cell-based
Phospholipase D1 = molecular target: T1, Phospholipase D1 (Homo sapiens, UniProt Q13393); assay: Inhibition of PLD1 in human Calu1 cells; format: cell-based
T1 sequence (Q13393 whole entry): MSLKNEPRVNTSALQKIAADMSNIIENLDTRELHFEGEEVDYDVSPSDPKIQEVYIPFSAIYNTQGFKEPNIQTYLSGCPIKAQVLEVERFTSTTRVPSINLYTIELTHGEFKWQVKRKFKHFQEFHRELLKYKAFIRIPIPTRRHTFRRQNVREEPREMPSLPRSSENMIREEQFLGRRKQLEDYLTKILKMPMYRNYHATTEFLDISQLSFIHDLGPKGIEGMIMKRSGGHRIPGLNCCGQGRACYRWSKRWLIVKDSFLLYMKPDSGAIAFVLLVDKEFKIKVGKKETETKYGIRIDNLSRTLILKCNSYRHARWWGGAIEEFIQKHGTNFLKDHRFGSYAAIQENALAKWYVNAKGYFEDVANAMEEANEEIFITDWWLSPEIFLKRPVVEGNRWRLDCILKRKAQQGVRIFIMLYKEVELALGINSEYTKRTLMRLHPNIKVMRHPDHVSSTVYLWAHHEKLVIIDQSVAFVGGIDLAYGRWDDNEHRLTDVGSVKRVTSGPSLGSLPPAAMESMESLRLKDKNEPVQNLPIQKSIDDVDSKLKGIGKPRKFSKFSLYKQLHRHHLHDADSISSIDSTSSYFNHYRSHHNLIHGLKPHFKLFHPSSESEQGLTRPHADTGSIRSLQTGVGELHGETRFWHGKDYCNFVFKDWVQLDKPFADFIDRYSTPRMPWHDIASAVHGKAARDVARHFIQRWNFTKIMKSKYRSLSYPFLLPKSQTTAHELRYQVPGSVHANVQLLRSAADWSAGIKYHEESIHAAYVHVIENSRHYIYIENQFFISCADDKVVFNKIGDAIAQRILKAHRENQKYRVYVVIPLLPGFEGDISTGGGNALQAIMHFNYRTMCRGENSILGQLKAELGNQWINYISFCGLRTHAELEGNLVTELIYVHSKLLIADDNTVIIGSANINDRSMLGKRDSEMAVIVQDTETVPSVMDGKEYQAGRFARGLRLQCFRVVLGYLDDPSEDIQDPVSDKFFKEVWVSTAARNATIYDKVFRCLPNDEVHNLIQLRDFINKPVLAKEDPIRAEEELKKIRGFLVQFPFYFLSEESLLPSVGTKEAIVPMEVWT

## C[C@@H](CN1CCC2(CC1)C(=O)NC[C@@H]2c1ccc(F)cc1)NC(=O)c1cnc2ccccc2c1
Phospholipase D2
  IC50: 0.7 µM
Phospholipase D1
  IC50: 0.2 µM

## O=C(NCCN1CCC2(CC1)C(O)=NC[C@H]2c1ccc(F)cc1)c1cnc2ccccc2c1
Phospholipase D2
  IC50: 0.06 µM
Phospholipase D1
  IC50: 1.35 µM

## O=C(NCCN1CCC2(CC1)C(O)=NC[C@H]2c1ccc(F)cc1)c1ccc(F)cc1
Phospholipase D2
  IC50: 0.22 µM
Phospholipase D1
  IC50: 5.5 µM

## O=C(NCCN1CCC2(CC1)C(=O)NC[C@@H]2c1ccc(F)cc1)c1cnc2ccccc2c1
Phospholipase D2
  IC50: 0.45 µM
Phospholipase D1
  IC50: 12 µM

## O=C(NCCN1CCC2(CC1)C(=O)NC[C@@H]2c1ccc(F)cc1)c1ccc(F)cc1
Phospholipase D2
  IC50: 3.17 µM
Phospholipase D1
  IC50: > 20 µM

## C[C@@H](CN1CCC2(CC1)C(=O)NC[C@H]2c1ccc(F)cc1)NC(=O)c1cnc2ccccc2c1
Phospholipase D2
  IC50: 0.115 µM
Phospholipase D1
  IC50: 0.025 µM
